Laboratory results taken from patent US20230241102A1, “FORMULATIONS OF CALCIUM AND PHOSPHATE FOR ORAL INFLAMMATION” (Bausch Health Companies Inc., priority 2014, published 2023).

Test: Visual solubility test: components mixed in 30 ml tap water, assessed visually for turbidity, particles in suspension or precipitate
Settings: Table 1 weights in 30 ml tap water, room temperature, hand-stirred 30 seconds to 1 minute

Monobasic Sodium Phosphate
Visual Observations: Dissolved (30 sec)
